These results are taken from patent US20230233469A1, “SEMI-SOLID FORMULATION FOR VOLUNTARY ORAL ADMINISTRATION OF BIOACTIVE COMPOUNDS TO RODENTS” (priority 2020, published 2023).

Sequences of proteins named here, by UniProt entry; tags and fusion partners are left off. Residues count along the entry.
UniProt P28843, 37-760 limits assumed: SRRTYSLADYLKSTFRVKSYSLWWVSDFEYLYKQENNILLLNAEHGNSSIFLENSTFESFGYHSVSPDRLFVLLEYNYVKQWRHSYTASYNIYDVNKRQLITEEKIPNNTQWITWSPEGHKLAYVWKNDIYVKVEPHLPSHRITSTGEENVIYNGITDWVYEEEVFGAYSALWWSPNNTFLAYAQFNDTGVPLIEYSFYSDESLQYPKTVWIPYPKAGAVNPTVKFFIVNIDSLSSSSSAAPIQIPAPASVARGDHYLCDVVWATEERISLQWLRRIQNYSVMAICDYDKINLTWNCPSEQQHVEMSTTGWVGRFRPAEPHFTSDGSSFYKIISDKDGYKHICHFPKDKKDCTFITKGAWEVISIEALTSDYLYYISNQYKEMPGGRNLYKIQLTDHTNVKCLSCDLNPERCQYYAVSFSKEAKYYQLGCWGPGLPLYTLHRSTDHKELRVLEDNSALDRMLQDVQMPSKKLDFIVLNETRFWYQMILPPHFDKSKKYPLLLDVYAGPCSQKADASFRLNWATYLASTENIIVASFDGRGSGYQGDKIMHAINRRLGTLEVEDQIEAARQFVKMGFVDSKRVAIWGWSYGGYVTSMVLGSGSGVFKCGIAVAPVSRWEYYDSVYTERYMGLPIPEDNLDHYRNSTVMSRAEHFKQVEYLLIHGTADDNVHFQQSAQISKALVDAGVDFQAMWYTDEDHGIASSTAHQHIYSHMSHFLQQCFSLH

In the assay the target is DPPIV (Mus musculus, UniProt P28843). The note with it: 50 mg/Kg once, plasma.

On to `N[C@@H](CC(=O)N1CCn2c(nnc2C(F)(F)F)C1)Cc1cc(F)c(F)cc1F` [sitagliptin], for which the “decrease on DPPIV activity” value was 80-90%.
